The values below come from paper PMC6371206 (ACS Pharmacology & Translational Science, 2019).

The test system of the assay is hD2R. Nature of the assay: Pairwise bias factor calculation. The format is cell-based, human. Conditions: logarithmic scale; relative to quinpirole; 30 min data.

As for `CCCN1CCC[C@@H]2Cc3n[nH]cc3C[C@H]21` [quinpirole, reference compound], the “Bias factor GoA−βarrestin” value is listed as 0.00 and the “Bias factor cAMP−βarrestin” value is 0.00.
